{"source": "paper PMC5602572", "about": "“New carboxamide derivatives bearing benzenesulphonamide as a selective COX-II inhibitor: Design, synthesis and structure-activity relationship” (PLoS ONE, 2017)", "molecular_target": "T1, COX-2 (Ovis aries, UniProt P79208)", "T1 construct": "purchased Cayman chemicals, USA", "T1 sequence (P79208 17-603)": "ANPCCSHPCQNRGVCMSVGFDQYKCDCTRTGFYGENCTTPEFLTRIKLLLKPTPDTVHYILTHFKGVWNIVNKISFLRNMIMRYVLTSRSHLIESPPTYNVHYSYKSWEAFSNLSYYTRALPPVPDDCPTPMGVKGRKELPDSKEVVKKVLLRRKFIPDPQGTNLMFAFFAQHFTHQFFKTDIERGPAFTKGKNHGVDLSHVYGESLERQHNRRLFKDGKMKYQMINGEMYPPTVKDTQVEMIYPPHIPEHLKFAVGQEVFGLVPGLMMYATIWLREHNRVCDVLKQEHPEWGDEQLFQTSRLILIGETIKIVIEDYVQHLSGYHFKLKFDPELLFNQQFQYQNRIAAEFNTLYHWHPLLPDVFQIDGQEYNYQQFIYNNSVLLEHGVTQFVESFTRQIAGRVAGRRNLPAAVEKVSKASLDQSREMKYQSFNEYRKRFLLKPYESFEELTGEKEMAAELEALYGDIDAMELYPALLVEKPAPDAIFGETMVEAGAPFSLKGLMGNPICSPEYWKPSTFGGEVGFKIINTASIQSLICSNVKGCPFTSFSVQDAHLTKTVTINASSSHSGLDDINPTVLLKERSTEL", "assay": "In vitro cyclooxygenase inhibitory assay (Cayman colorimetric COX (ovine) inhibitor screening kit), COX-2", "format": "biochemical", "details": "for S I (selectivity COX-2/COX-1): ratio of % inhibition COX-2/COX-1 at 2.0 μM; for selectivity for COX-2 (in words): from COX-2/COX-1 % inhibition at 2.0 μM", "protocol": "The calculations were performed as per the kit guidelines."}
{"smiles": "Cc1ccnc(NC(=O)[C@H](Cc2cc3ccccc3[nH]2)N(C(=O)c2ccccc2)S(=O)(=O)c2ccc([N+](=O)[O-])cc2)c1", "note": "[Compound 7c, (2S)-3-(1H-indol-2-yl)-N-(4-methylpyridin-2-yl)-2-[N-(4-nitrobenzenesulfonyl)-1-phenylformamido]propanamide]", "values": [{"measurement": "S I (selectivity COX-2/COX-1)", "value": 35}]}
{"smiles": "Cc1ccnc(NC(=O)[C@@H]2CC(O)CN2S(=O)(=O)c2ccc([N+](=O)[O-])cc2)c1", "note": "(stereo partly drawn) [Compound 7g, (2S)-4-Hydroxy-N-(4-methylpyridin-2-yl)-1-(4-nitrobenzenesulfonyl)pyrrolidine-2-carboxamide]", "values": [{"measurement": "selectivity for COX-2 (in words)", "value": "non-selective"}, {"measurement": "S I (selectivity COX-2/COX-1)", "value": 1.11}]}
{"smiles": "Cc1ccnc(NC(=O)[C@@H]2CCCN2S(=O)(=O)c2ccc([N+](=O)[O-])cc2)c1", "note": "[Compound 7h, (2S)-N-(4-methylpyridin-2-yl)-1-(4-nitrobenzenesulfonyl)pyrrolidine-2-carboxamide]", "values": [{"measurement": "selectivity for COX-2 (in words)", "value": "non-selective"}, {"measurement": "S I (selectivity COX-2/COX-1)", "value": 0.43}]}
{"smiles": "Cc1ccc(S(=O)(=O)N2CC(O)C[C@H]2C(=O)Nc2cc(C)ccn2)cc1", "note": "(stereo partly drawn) [Compound 7o, (2S)-4-Hydroxy-1-(4-methylbenzenesulfonyl)-N-(4-methylpyridin-2-yl)pyrrolidine-2-carboxamide]", "values": [{"measurement": "S I (selectivity COX-2/COX-1)", "value": 3.00}]}
{"smiles": "Cc1ccc(S(=O)(=O)N2CCC[C@H]2C(=O)Nc2cc(C)ccn2)cc1", "note": "[Compound 7p, (2S)-1-(4-Methylbenzenesulfonyl)-N-(4-methylpyridin-2-yl)pyrrolidine-2-carboxamide]", "values": [{"measurement": "S I (selectivity COX-2/COX-1)", "value": 2.5}]}
